Measurements taken from US20190153089A1 (NUMAB INNOVATION, published 2019).

Amino acid sequences for entries named in this document (tags omitted). Residues count along the entry.
UniProt P01375, 77-233 limits assumed: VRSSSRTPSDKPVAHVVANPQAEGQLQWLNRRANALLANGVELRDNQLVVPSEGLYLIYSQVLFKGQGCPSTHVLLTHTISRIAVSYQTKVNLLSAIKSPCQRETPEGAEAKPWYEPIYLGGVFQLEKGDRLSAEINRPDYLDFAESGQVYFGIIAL

Molecular target: recombinant human TNFα (Peprotech, Cat. No. 300-01) (human, UniProt P01375 77-233, biotinylated in the inhibition and competition ELISAs; unlabelled elsewhere)
Test: cell-based or functional assay

B1: infliximab (antibody, V domains shown)
VH: EVKLEESGGGLVQPGGSMKLSCVASGFIFSNHWMNWVRQSPEKGLEWVAEIRSKSINSATHYAESVKGRFTISRDDSKSAVYLQMTDLRTEDTGVYYCSRNYYGSTYDYWGQGTTLTVSS
VL: DILLTQSPAILSVSPGERVSFSCRASQFVGSSIHWYQQRTNGSPRLLIKYASESMSGIPSRFSGSGSGTDFTLSINTVESEDIADYYCQQSHSWPFTFGSGTNLEVKR
In the case of B1, the “IC50 to neutralize TNFα-induced apoptosis of L929 fibroblasts (100 pM TNFα, screening format)” value is reported as 36.2 ng/mL.
